Measured values published in ChEMBL document CHEMBL1136038, “Parallel solution- and solid-phase synthesis of spiropyrrolo-pyrroles as novel neurokinin receptor ligands” (Bioorg Med Chem Lett, 2002).

By UniProt entry, the sequences of proteins in these tests, tags left out.
UniProt P25103, whole entry: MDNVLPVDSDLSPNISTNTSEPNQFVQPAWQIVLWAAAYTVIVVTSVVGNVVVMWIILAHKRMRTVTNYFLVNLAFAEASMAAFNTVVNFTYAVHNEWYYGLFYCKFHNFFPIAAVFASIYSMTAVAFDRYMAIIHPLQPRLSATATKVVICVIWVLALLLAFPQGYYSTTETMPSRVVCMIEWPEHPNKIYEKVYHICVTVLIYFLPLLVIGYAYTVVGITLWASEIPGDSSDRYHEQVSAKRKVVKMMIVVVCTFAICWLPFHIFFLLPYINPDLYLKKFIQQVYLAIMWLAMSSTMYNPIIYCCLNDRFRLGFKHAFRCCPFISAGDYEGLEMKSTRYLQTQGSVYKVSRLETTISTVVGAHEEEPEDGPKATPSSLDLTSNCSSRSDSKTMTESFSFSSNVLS

Biological target: Substance-P receptor (Homo sapiens, UniProt P25103)
Assay: Affinity for human Tachykinin receptor 1 expressed in CHO cells
Assay type: cell-based

Ki: 1.07 µM
Structure (SMILES): CC(=O)N1CCC2(CC1)C1C(=O)N(c3ccccc3)C(=O)C1CN2C(=O)c1cc(C(F)(F)F)cc(C(F)(F)F)c1 (stereo unspecified)
